The source of these data is patent publication US20250346663A1.

The chains behind the UniProt entries cited, without tags or fusion partners. Residues count along the entry.
UniProt P48357, 22-1165: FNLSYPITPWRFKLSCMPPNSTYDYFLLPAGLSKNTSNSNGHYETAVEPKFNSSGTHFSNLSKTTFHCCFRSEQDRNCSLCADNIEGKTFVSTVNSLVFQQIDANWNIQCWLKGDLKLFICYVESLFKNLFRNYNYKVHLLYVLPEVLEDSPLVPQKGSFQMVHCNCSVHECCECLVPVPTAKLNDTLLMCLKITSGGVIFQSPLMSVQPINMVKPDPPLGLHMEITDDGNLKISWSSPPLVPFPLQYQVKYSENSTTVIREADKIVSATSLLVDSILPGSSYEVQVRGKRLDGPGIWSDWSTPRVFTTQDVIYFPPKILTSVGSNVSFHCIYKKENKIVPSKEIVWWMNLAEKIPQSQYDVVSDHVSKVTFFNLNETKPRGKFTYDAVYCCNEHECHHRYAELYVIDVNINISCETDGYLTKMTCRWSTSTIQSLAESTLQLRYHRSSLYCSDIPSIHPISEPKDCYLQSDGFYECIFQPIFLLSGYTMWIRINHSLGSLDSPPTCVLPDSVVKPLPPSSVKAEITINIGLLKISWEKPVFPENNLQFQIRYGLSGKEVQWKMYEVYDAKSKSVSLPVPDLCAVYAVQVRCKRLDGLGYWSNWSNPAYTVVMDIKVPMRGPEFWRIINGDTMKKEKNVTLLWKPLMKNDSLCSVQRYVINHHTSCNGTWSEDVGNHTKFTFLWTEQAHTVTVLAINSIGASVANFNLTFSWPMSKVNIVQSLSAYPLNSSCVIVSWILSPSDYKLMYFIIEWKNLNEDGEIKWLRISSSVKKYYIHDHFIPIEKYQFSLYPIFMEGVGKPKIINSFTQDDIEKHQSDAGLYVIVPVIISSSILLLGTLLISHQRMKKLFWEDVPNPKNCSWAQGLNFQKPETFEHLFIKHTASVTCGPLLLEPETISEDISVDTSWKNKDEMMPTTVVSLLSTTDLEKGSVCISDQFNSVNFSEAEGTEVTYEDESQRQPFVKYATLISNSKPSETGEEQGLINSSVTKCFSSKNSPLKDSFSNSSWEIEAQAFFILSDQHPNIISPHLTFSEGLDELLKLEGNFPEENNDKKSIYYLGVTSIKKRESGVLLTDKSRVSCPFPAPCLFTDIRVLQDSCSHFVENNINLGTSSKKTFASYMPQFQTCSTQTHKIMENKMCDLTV

The target in the assay is human leptin receptor on 293T reporter cells (human) (UniProt P48357). Briefly: cell-based or functional assay.

“mbp_G4S_hlep(22-167)V94M (MBP-(G4S)-human leptin V94M-6His) (ligand)” registered a bioactivity of the purified human leptin from Spirulina of 0.5 nM.
